scFv variants of Ab-14 (light chain) against a SARS-CoV-2 spike peptide

Target: peptide PDVDLGDISGINAS, taken from heptad repeat 2 (HR2) of SARS-CoV-2 spike.

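The parent was found by panning a naive human phage display library on the peptide. The variants were designed computationally from a first round of random CDR variants and then made and measured. Their group label is 14L_GP_Gen (GP: Gaussian process model; Gen: genetic algorithm; a sequence that several methods proposed may carry one label only). The assay is AlphaSeq: two haploid yeast populations carry antibody and antigen on their surface. Mating (16 h, 30 °C) was followed by selection of diploids and sequencing of their barcodes. A regression on co-assayed BCL2-family reference pairs converts the normalised counts of each replicate to an apparent Kd. Mating was done six times.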

Each scFv is VH, the linker GGGGSGGGGSGGGGS, VL, as in the parent Ab-14, and differs from it in the CDRs of the light chain only.
VH: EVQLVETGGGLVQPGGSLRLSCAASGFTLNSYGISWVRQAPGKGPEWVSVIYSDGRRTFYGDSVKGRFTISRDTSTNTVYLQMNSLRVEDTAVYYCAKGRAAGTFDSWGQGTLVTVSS
VL: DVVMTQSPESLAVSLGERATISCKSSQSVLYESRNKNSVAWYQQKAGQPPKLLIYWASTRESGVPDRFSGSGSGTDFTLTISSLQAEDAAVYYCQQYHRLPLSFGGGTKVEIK

Positions count from residue 1 of the parent VL; S25V puts V in place of S.
The read-out is the apparent dissociation constant on a log10 scale (nM): the lower, the stronger.
Replicates are averaged; those with no signal do not enter the mean.
A sequence measured in both rounds can read differently, since the two assays cover different ranges.
As a blank, each scFv also met three strains without target: over all light chain designs, 4% of these pairings were detected, typically at 2.64 and seldom below 1.59. For each scFv, signals with the empty controls are counted beside the result, with their mean in brackets.
The parent sequence was in this pool as ten entries: three were never detected, three once, and four in most replicates, with averages from 0.34 to 2.37.
The authors averaged sequences with at least three values out of six and counted those with two or fewer as poor binders.

changes,"log10 Kd, replicates","log10 Kd (nM), mean",signal with controls
S25V V29Y W56N T59Y,0.62 1.09 0.87 1.04 0.78 1.44,0.97,0 of 18
S25V Q27P V29M W56D,-0.33 -0.40 -0.64 -0.73 -0.48 -0.49,-0.51,2 of 18 (1.73)
S25V V29E W56E S62E,-0.23 -0.74 -0.64 -0.85 -0.71 -0.44,-0.60,0 of 18
S25L V29E N37M W56N T59Q,0.23 -0.01 0.10 0.18 0.24 0.39,0.19,0 of 18
S25L W56S E61M,0.07 -0.03 -0.12 -0.14 0.01 0.08,-0.02,0 of 18
S25L L30E W56E S62V,-0.21 -0.31 -0.29 -0.44 -0.06 -0.24,-0.26,1 of 18 (1.62)
S25L W56G S103I,-0.07 -0.34 -0.51 -0.44 -0.06 -0.07,-0.25,0 of 18
S25L S33E N35M W56N T59Q E61L,0.28 0.43 0.16 0.04 -0.01 0.42,0.22,0 of 18
S25L V29Q W56N S62V,0.02 -0.20 -0.27 -0.31 -0.12 0.17,-0.12,0 of 18
S25L S26Q Q27F V29W W56N,0.04 0.10 -0.22 -0.43 -0.21 0.04,-0.11,0 of 18
S25V V29F Y31M W56E,0.14 0.29 0.15 -0.35 -0.33 -0.26,-0.06,0 of 18
S25M W56N T59Q,0.23 0.04 0.19 0.15 0.06 0.23,0.15,1 of 18 (2.47)
S25L Q27W V29D W56E,-0.17 -0.11 -0.49 -0.19 -0.33 -0.22,-0.25,1 of 18 (4.20)
S25M V29Y W56N T59Q,-0.03 -0.20 -0.38 -0.42 -0.24 -0.15,-0.24,0 of 18
S25V S26Q W56D E61L,-0.13 -0.15 -0.41 -0.43 -0.34 -0.10,-0.26,0 of 18
S25V V29H N35M W56N T59Q,0.02 -0.11 -0.26 -0.30 -0.07 0.20,-0.08,0 of 18
S25L N37W S38N W56N,0.09 -0.17 -0.18 -0.26 -0.29 0.03,-0.13,1 of 18 (2.11)
S25V V29F W56D,-0.21 -0.65 -0.42 -0.72 -0.41 -0.06,-0.41,0 of 18
S25L V29E Y31M W56N E61L,-0.02 -0.41 -0.24 -0.28 -0.38 -0.31,-0.27,1 of 18 (2.77)
S25L S26E V29M L30E W56N T59Q,0.56 0.39 0.27 0.71 0.48 0.41,0.47,2 of 18 (2.88)
S25L V29N W56E T59Q,-0.14 -0.60 -0.53 -0.84 -0.55 -0.55,-0.53,0 of 18
S25L S26E L30P W56N,-0.05 -0.04 -0.13 -0.17 -0.12 0.12,-0.07,0 of 18
S25L W56A S62V,0.97 0.96 0.65 0.37 0.67 0.49,0.68,1 of 18 (2.39)
S25L S26P W56N E61C,-0.09 -0.15 -0.27 -0.45 -0.08 0.11,-0.16,1 of 18 (2.14)
S25V N35Q W56N T59Q,0.18 -0.40 0.14 0.01 -0.15 -0.30,-0.09,0 of 18
V29E W56N T59Q E61M,-0.04 -0.13 -0.11 -0.24 -0.14 0.03,-0.11,0 of 18
S25L V29H S38N W56H,0.05 -0.07 -0.15 -0.23 0.02 -0.07,-0.07,2 of 18 (2.08)
S25H W56E,-0.16 -0.17 0.02 -0.30 -0.16 -0.02,-0.13,1 of 18 (2.20)
S25L N35E W56N,-0.03 0.06 -0.02 -0.15 -0.02 -0.01,-0.03,0 of 18
S25V V29D S38Q W56E,0.27 0.15 0.31 -0.14 0.20 0.33,0.19,3 of 18 (3.30)
S25F S26Q V29E W56N E61L,0.04 0.03 -0.09 -0.24 -0.18 0.05,-0.06,1 of 18 (3.05)
S25L Q27W V29E W56G,-0.08 -0.17 -0.40 -0.28 -0.42 -0.27,-0.27,1 of 18 (2.45)
S25L S26E S33Q W56N E61M,-0.15 -0.26 -0.57 -0.61 -0.38 -0.31,-0.38,0 of 18
S25L S26P V29E W56N T59E,0.75 0.67 0.34 0.81 0.94 0.72,0.70,0 of 18
S25L S33D S38N W56N,-0.64 -0.60 -0.68 -0.49 -0.64 -0.41,-0.58,2 of 18 (2.10)
S25L S26M W56N T59Q E61M,0.26 0.12 0.05 -0.11 -0.02 0.04,0.06,1 of 18 (2.75)
S25V S26P V29H W56E,-0.15 -0.17 -0.14 -0.45 -0.32 -0.24,-0.25,2 of 18 (2.35)
S25L S28L V29W W56N,-0.08 -0.11 -0.12 -0.30 -0.07 -0.13,-0.13,0 of 18
L30P W56D,0.24 0.22 0.04 0.06 -0.05 0.34,0.14,0 of 18
S25L V29D N37W W56N,0.04 -0.07 -0.20 -0.30 -0.09 -0.09,-0.12,1 of 18 (2.74)
S25L S26P V29Q W56H,0.10 -0.05 -0.16 -0.13 -0.01 0.18,-0.01,1 of 18 (2.55)
S25V V29W W56E Q96D,-0.28 -0.33 -0.35 -0.42 -0.52 -0.10,-0.33,1 of 18 (3.48)
S25L V29Q S38N W56N E61C,-0.20 -0.16 -0.30 -0.30 -0.31 -0.11,-0.23,1 of 18 (2.36)
S25L V29T W56N,0.23 0.10 0.08 0.09 0.02 0.26,0.13,1 of 18 (3.04)
S25L S26Q V29H N35M W56N,0.52 0.48 0.26 0.34 0.40 0.62,0.44,2 of 18 (2.45)
S25L W56N E61L Q96D,0.08 0.14 -0.01 -0.22 -0.05 0.12,0.01,2 of 18 (2.31)
S25L K36F W56N E61L,-0.06 -0.16 -0.23 -0.32 -0.18 0.12,-0.14,1 of 18 (2.12)
S25L W56D S62K,0.09 0.26 0.39 0.19 0.16 0.15,0.21,0 of 18
S26E V29E L30P W56N,0.01 -0.04 -0.12 -0.20 -0.41 -0.03,-0.13,0 of 18
S25L V29E N35M W56N E61L,0.49 0.52 0.69 0.52 0.50 0.63,0.56,0 of 18
S25L S26P V29E W56D,-0.14 -0.58 -0.77 -0.99 -0.90 -0.46,-0.64,0 of 18
S25L V29Q W56N T59Y,-0.38 -0.39 -0.37 -0.63 -0.45 -0.42,-0.44,3 of 18 (3.57)

The measurements come from Li et al. 2023 (doi:10.1038/s41467-023-39022-2) through the FLAb antibody collection.